High-throughput results deposited in PubChem by Broad Institute.
Most compounds without a hit are left out; they make up all but 1% or so of the library.
UUG fidelity = alters start codon recognition fidelity in yeast; S. cerevisiae UUG-firefly luciferase reporter, luminescence/redox ratio; activity score, % at 18.7 µM; actives 0.13% (n = 350,000); AID 602363;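 active = replicate mean at a twofold rise or more, about +100% in these data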;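 also: firefly luciferase made from a UUG start codon reports start codon fidelity; reporter light over untreated wells divided by growth signal over untreated wells; some hits fall short of that in this replicate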
Statin myotox sup = suppressors of statin myotoxicity in C2C12 myotubes, primary screen, cell-based, single point, plate reader; rescue of ATP level, % at 7.49 µM; AID 602340, 2012; actives 0.78% (n = 330,000); C2C12 myotubes + simvastatin, ATP luminescence, 48 h; scaled: DMSO 0, geranylgeraniol control 100;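 active means mean ATP rescue above about 67%, or every replicate alone reaching that limit, limit read from the data, passing the limit was not always enough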;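 further: myotubes were challenged with 10 µM simvastatin during compound exposure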
Rtt109 Vps75 = inhibitors of C. albicans Rtt109/Vps75 HAT, primary screen, biochemical, ThioGlo CoA-SH fluorescence, plate reader. Histone acetyltransferase RTT109 (Candida albicans (strain SC5314 / ATCC MYA-2876)), …. purified Rtt109/Vps75, 4 h. inhibition, % at 34.9 µM. actives 0.16% (n = 330,000). AID 540336, 2011;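 active means inhibition of at least 50% in every replicate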
Cneo AK release = Cryptococcus neoformans cell lysis inducers, primary screen, AK release luminescence, single concentration; C. neoformans lysis, adenylate kinase release luminescence, 4 h; normalised: neutral wells 0, clomiphene wells 100; lysis activity, % at 15 µM; actives 0.2% (n = 360,000); AID 651654, 2012;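 active means mean lysis activity across replicates of at least 80%, whatever share of replicates individually reach that level; inactive means mean lysis activity below 80%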
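Material – log-phase Cryptococcus neoformans yeast cells · Input – 5 × 10^6 yeast cells/mL · Medium – fresh YPD growth medium · Doses – single compound concentration per well · Timing – static 4 h at 37 °C with compound, 1 h detection · Detection – adenylate kinase release luminescence · Read-out – signal increase indicating cell lysis · Control set – Clomiphene as positive lysis control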
CDK5 inh = inhibitors of human CDK5/p35 kinase, primary screen, biochemical, single concentration | Recombinant CDK5/p35, ADP-Glo luminescence, 60 min | inhibition, % at 10 µM | AID 488839, 2010 | Cyclin-dependent kinase 5 (Homo sapiens) + Cyclin-dependent kinase 5 activator 1 (Homo … | actives 0.01% (n = 330,000);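 active means highest replicate inhibition of at least 50% and at least 75% of replicates reaching 50%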;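 further: plate controls were DMSO neutral control for no effect and GW8510 at 10 µM for full effect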
* hit, by the source's call; · = not tested or not shown; ! = not confirmed by another sample.

1: C[C@@H]1CN([C@@H](C)CO)C(=O)CCCn2nncc2CO[C@H]1CN(C)C(=O)Oc1cccc2ccccc12
2: CN1CCN(c2nccc3c2ncn3C)CC1
3: O=C(O)[C@H]1[C@H](CO)[C@H]2Cn3c(ccc(-c4ccncc4)c3=O)[C@@H]1N2C(=O)C1CCC1
4: COc1cccc(-c2ccc([C@H]3[C@@H](CO)N4CCCCN(C(=O)Cc5ccncc5)C[C@H]34)cc2)c1
5: CCOC(=O)[C@]12Cc3cc(Cl)ccc3[C@H]1N(Cc1ccccc1)C(=O)c1ccccc12
6: CCOC(=O)[C@]12Cc3cc(N(C)C)ccc3[C@H]1N(Cc1ccccc1)C(=O)c1ccccc12
7: Clc1ccc(CSC(Cn2ccnc2)c2ccc(Cl)cc2Cl)cc1 (configuration not stated)
8: Clc1ccc(COC(Cn2ccnc2)c2ccc(Cl)cc2Cl)cc1 (configuration not stated)
Screen / compound no.,1,2,3,4,5,6,7,8
UUG fidelity,-3,-12,-33,-2,9,9,-41,1
Statin myotox sup,2,101*,1,·,29,95*,-9,-7
Rtt109 Vps75,·,7,·,·,-4,3,44,74*!
Cneo AK release,88*!,2,1,0,-3,-3,-9,1
CDK5 inh,·,0,·,·,0,-2,-4,1

9: O=C(Nc1cccnc1)c1c(O)c2c(n(Cc3ccccc3)c1=O)CCCC2
10: O=C(Nc1ccc(F)cc1)c1c(O)c2c(n(Cc3ccccc3)c1=O)CCCC2
11: C=C1C(=O)O[C@@H]2C[C@@H](C)[C@@H]3C4OC4C(=O)[C@@]3(C)[C@@H](O)[C@H]12 (some centres not stated)
12: C=C1C(=O)OC2CC(C)C3C=CC(=O)C3(C)C(O)C12 (configuration not stated)
13: CC(C)c1oc(=O)cc2c1[C@@H](O)[C@H]1OC(=O)[C@@]3(C)C[C@@H](O)[C@@H](O)[C@@]2(C)C13 (some centres not stated)
14: O=C(Cc1ccccc1)N1CCCCN2[C@@H](CO)[C@H](c3ccc(C#CC4(O)CCCC4)cc3)[C@@H]2C1
15: C=CCOC(=O)C1=C(C)OC(N)=C(C#N)C12C(=O)N(CN1CCOCC1)c1ccccc12 (configuration not stated)
16: CCOC(=O)C1=C(C)OC(N)=C(C#N)C12C(=O)N(C)c1ccccc12 (configuration not stated)
Screen / compound no.,9,10,11,12,13,14,15,16
UUG fidelity,-12,·,-1,·,17,6,-21,·
Statin myotox sup,-4,·,80*,·,96*,·,111*,6
Rtt109 Vps75,0,50*,7,3,-9,·,-3,-13
Cneo AK release,-1,·,0,·,2,-1,2,·
CDK5 inh,1,0,-1,0,-1,·,-1,-1

17: O=C(O)[C@H]1[C@H](CO)[C@H]2Cn3c(ccc(-c4ccncc4)c3=O)[C@@H]1N2C(=O)C1CCCCC1
18: CN1CCC(N(C)c2ncnc3ccc(Br)cc23)CC1
19: CC(C)n1nnnc1CN1CCN(C)CC1
20: CN1CCN(Cc2cn3cccnc3n2)CC1
21: COC(=O)[C@@H]1[C@@H](CO)[C@@H]2Cn3c(ccc(-c4cccnc4)c3=O)[C@H]1N2S(=O)(=O)c1ccccc1C
22: O=c1oc2ccccc2c(O)c1C(c1ccc([N+](=O)[O-])cc1)c1c(O)c2ccccc2oc1=O
23: CCC(=Nc1ccc2c(c1)CCC2)c1c(O)n(C)c(=O)n(C)c1=O
24: CC(=Nc1ccc2c(c1)CCC2)c1c(O)n(C)c(=O)n(C)c1=O
Screen / compound no.,17,18,19,20,21,22,23,24
UUG fidelity,-4,-30,-13,·,·,0,-18,-8
Statin myotox sup,-7,83*,99*,·,-19,9,112*,-11
Rtt109 Vps75,·,-5,-4,-1,·,68*,1,6
Cneo AK release,-3,3,0,·,-4,-1,-1,0
CDK5 inh,·,-1,-3,0,·,-1,1,-2

25: CC(=O)OC1CC2OC3C=C(C)CCC3(C)C1(C)C21CO1 (configuration not stated)
26: COC(=O)[C@@H]1[C@@H](CO)[C@@H]2Cn3c(ccc(-c4ccccc4F)c3=O)[C@H]1N2
27: CC1(C)N(O)C2CCCCC2N1O (configuration not stated)
28: CC1(O)C[C@]2(C)N(O)C3CCCC[C@@H]3N2O1 (some centres not stated)
29: COC(=O)[C@@H]1[C@@H](CO)[C@@H]2Cn3c(ccc(-c4ccccc4F)c3=O)[C@H]1N2C(=O)C1CCC1
30: CCCN1[C@@H]2c3cccc(=O)n3C[C@H]1[C@H](CO)[C@H]2C(=O)N(C)C
31: O=C1NC(=S)N(c2ccc(Cl)cc2)C(=O)/C1=C/N1CCN(C(=O)c2ccco2)CC1
32: NNc1n[nH]c(=S)n1N
Screen / compound no.,25,26,27,28,29,30,31,32
UUG fidelity,49,·,-27,-19,-5,·,·,-4
Statin myotox sup,210*,38,107*,3,16,3,77*,·
Rtt109 Vps75,·,·,-1,-9,·,·,3,139*
Cneo AK release,24,1,21,1,-7,-1,·,1
CDK5 inh,·,·,1,0,·,·,1,1

33: COC(=O)[C@@H]1[C@@H](CO)[C@@H]2Cn3c(ccc(-c4cccc(OC)c4)c3=O)[C@H]1N2CC1CC1
34: O=C1C2CCCN2C(c2cccnc2)N1c1nccs1 (configuration not stated)
35: O=C1C2CCCN2C(c2cccnc2)N1c1ccc(Cl)cc1 (configuration not stated)
36: Cc1ccccc1S(=O)(=O)N1[C@@H]2c3ccc(-c4cccnc4)c(=O)n3C[C@H]1[C@H](CO)[C@H]2C(=O)O
37: O=C(Cc1cccnc1)N1CCCCN2[C@H](CO)[C@H](c3ccc(/C=C/c4ccccc4)cc3)[C@H]2C1
38: C/C(=N\NC(=O)c1ccccc1)c1c(O)n(C2CCCCC2)c(=O)[nH]c1=O
39: CC(=NCc1cccnc1)c1c(O)n(C2CCCCC2)c(=O)[nH]c1=O
40: COC(=O)[C@H]1[C@H](CO)[C@H]2Cn3c(ccc(C4=CCCC4)c3=O)[C@@H]1N2C(=O)C1CCCCC1
Screen / compound no.,33,34,35,36,37,38,39,40
UUG fidelity,·,-16,-9,·,-11,-17,-11,·
Statin myotox sup,6,155*,·,-14,·,95*,113*,8
Rtt109 Vps75,·,0,-2,·,·,1,7,·
Cneo AK release,-3,0,3,-2,6,-1,1,·
CDK5 inh,·,1,0,·,·,-5,3,·

41: CCOc1ccc(-n2c(CC)nc3ccccc3c2=O)cc1
42: COc1ccc(-n2c(Cc3ccccc3)nc3ccccc3c2=O)cc1
43: C/C(=N\N1CCCCCC1)c1c(O)n(-c2ccc(Cl)cc2)c(=O)[nH]c1=O
44: CCC(=NCCO)c1c(O)n(-c2ccc(Cl)cc2)c(=O)[nH]c1=O
45: COc1ccc(NC(=O)c2cn(CCC#N)nc2-c2cccc([N+](=O)[O-])c2)cc1
Screen / compound no.,41,42,43,44,45
UUG fidelity,-22,-13,-6,-11,·
Statin myotox sup,131*,·,4,114*,·
Rtt109 Vps75,3,6,-7,14,7
Cneo AK release,0,1,0,0,·
CDK5 inh,1,2,-2,0,3

Record cards, from the list above.
`COc1ccc(NC(=O)c2cn(CCC#N)nc2-c2cccc([N+](=O)[O-])c2)cc1` is listed as UUG fidelity = ·; Statin myotox sup = ·; Rtt109 Vps75 = 7; Cneo AK release = ·; CDK5 inh = 3
`C/C(=N\N1CCCCCC1)c1c(O)n(-c2ccc(Cl)cc2)c(=O)[nH]c1=O` is listed as UUG fidelity = -6; Statin myotox sup = 4; Rtt109 Vps75 = -7; Cneo AK release = 0; CDK5 inh = -2
